In patent publication US11717508B2, “Compounds, compositions, and methods for inhibiting bacterial growth” (priority 2016, dated 2023):
Like-named read-outs stand apart in the source and are kept apart here.

Test system: DosRST regulon
Type: cell-based

C[C@@H]1CC[C@H]2[C@@H](C)C(=O)O[C@@H]3O[C@]4(C)CC[C@@H]1[C@]32OO4 [HC101A, artemisinin, reference compound]
WT DMSO/WT HC101A Fold change (gene MT0037 (Rv0032 bioF2)): 0.3268
WT DMSO/WT HC101A Fold change (gene MT0038 (Rv0033)): 0.1722
WT DMSO/WT HC101A Fold change (gene MT0040 (Rv0035 fadD34)): 0.3051
WT DMSO/WT HC101A Fold change (gene MT0055): 0.4096
WT DMSO/WT HC101A Fold change (gene MT0062 (Rv0056 rp11)): 0.4799
WT DMSO/WT HC101A Fold change (gene MT0086 (Rv0079)): 0.4021
WT DMSO/WT HC101A Fold change (gene MT0105 (Rv0096 PPE)): 0.3338
WT DMSO/WT HC101A Fold change (gene MT0106 (Rv0097)): 0.3195
WT DMSO/WT HC101A Fold change (gene MT0107 (Rv0098)): 0.3181
WT DMSO/WT HC101A Fold change (gene MT0108 (Rv0099 fadD10)): 0.4806
WT DMSO/WT HC101A Fold change (gene MT0117): 0.4973
WT DMSO/WT HC101A Fold change (gene MT0122 (Rv0113 gmhA)): 0.4892
WT DMSO/WT HC101A Fold change (gene MT0124): 0.2581
WT DMSO/WT HC101A Fold change (gene MT0175 (Rv0166 fadD5)): 0.2572
WT DMSO/WT HC101A Fold change (gene MT0176): 0.4108
WT DMSO/WT HC101A Fold change (gene MT0178 (Rv0169 mcel)): 0.3155
WT DMSO/WT HC101A Fold change (gene MT0179 (Rv0170)): 0.2962
WT DMSO/WT HC101A Fold change (gene MT0180 (Rv0171)): 0.3196
WT DMSO/WT HC101A Fold change (gene MT0181 (Rv0172)): 0.353
WT DMSO/WT HC101A Fold change (gene MT0182 (Rv0173 IprK)): 0.3213
WT DMSO/WT HC101A Fold change (gene MT0183 (Rv0174)): 0.4165
WT DMSO/WT HC101A Fold change (gene MT0241 (Rv0231 fadE4)): 0.4159
WT DMSO/WT HC101A Fold change (gene MT0244 (Rv0233 nrdB)): 0.3457
WT DMSO/WT HC101A Fold change (gene MT0329 (Rv0315)): 0.3324
WT DMSO/WT HC101A Fold change (gene MT0417): 0.4024
WT DMSO/WT HC101A Fold change (gene MT0423 (Rv0410c pknG)): 0.2591
WT DMSO/WT HC101A Fold change (gene MT0424 (Rv0411c glnH)): 0.3179
WT DMSO/WT HC101A Fold change (gene MT0425 (Rv0412c)): 0.3527
WT DMSO/WT HC101A Fold change (gene MT0429 (Rv0416)): 0.3752
WT DMSO/WT HC101A Fold change (gene MT0434): 0.4735
WT DMSO/WT HC101A Fold change (gene MT0524): 0.4713
WT DMSO/WT HC101A Fold change (gene MT0595 (Rv0569)): 0.1538
WT DMSO/WT HC101A Fold change (gene MT0596 (Rv0570 nrdZ)): 0.04371
WT DMSO/WT HC101A Fold change (gene MT0597 (Rv0571c)): 0.2499
WT DMSO/WT HC101A Fold change (gene MT0599 (Rv0572c)): 0.07978
WT DMSO/WT HC101A Fold change (gene MT0600): 0.05061
WT DMSO/WT HC101A Fold change (gene MT0601 (Rv0573c)): 0.126
WT DMSO/WT HC101A Fold change (gene MT0602 (Rv0574c)): 0.08476
WT DMSO/WT HC101A Fold change (gene MT0637 (Rv0608)): 0.4754
WT DMSO/WT HC101A Fold change (gene MT0735 (Rv0708 rplP)): 0.4557
WT DMSO/WT HC101A Fold change (gene MT0736 (Rv0709 rpmC)): 0.478
WT DMSO/WT HC101A Fold change (gene MT0741): 0.4411
WT DMSO/WT HC101A Fold change (gene MT0741.1 (Rv0715 rplX)): 0.4264
WT DMSO/WT HC101A Fold change (gene MT0742.1 (Rv0717 rpsN)): 0.4807
WT DMSO/WT HC101A Fold change (gene MT0747 (Rv0722 rpmD)): 0.3809
WT DMSO/WT HC101A Fold change (gene MT0845 (Rv0823c)): 0.451
log2 Fold change (gene MT0845 (Rv0823c)): −1.149
WT DMSO/WT HC101A Fold change (gene MT0846 (Rv0824c desA1)): 0.316
WT DMSO/WT HC101A Fold change (gene MT0877 (Rv0854)): 0.4775
WT DMSO/WT HC101A Fold change (gene MT0898): 0.1015
WT DMSO/WT HC101A Fold change (gene MT0908 (Rv0885)): 0.2626
WT DMSO/WT HC101A Fold change (gene MT0909 (Rv0886 fprB)): 0.3541
WT DMSO/WT HC101A Fold change (gene MT0911 (Rv0888)): 0.1946
WT DMSO/WT HC101A Fold change (gene MT1002 (Rv0974c accD2)): 0.2898
WT DMSO/WT HC101A Fold change (gene MT1019 (Rv0990c)): 0.445
WT DMSO/WT HC101A Fold change (gene MT1020): 0.387
WT DMSO/WT HC101A Fold change (gene MT1056 (Rv1037c)): 0.385
WT DMSO/WT HC101A Fold change (gene MT1095 (Rv1065)): 0.4439
WT DMSO/WT HC101A Fold change (gene MT1106 (Rv1076 lipU)): 0.4933
WT DMSO/WT HC101A Fold change (gene MT1126 (Rv1094 dosA2)): 0.3974
WT DMSO/WT HC101A Fold change (gene MT1214 (Rv1177 fdxC)): 0.4072
WT DMSO/WT HC101A Fold change (gene MT1233 (Rv1195 PE)): 0.2078
WT DMSO/WT HC101A Fold change (gene MT1234 (Rv1196 PPE)): 0.2727
WT DMSO/WT HC101A Fold change (gene MT1235): 0.3284
WT DMSO/WT HC101A Fold change (gene MT1236): 0.2469
WT DMSO/WT HC101A Fold change (gene MT1314 (Rv1277)): 0.4624
WT DMSO/WT HC101A Fold change (gene MT1322 (Rv1284)): 0.2486
WT DMSO/WT HC101A Fold change (gene MT1385): 0.4002
WT DMSO/WT HC101A Fold change (gene MT1414.1): 0.4164
WT DMSO/WT HC101A Fold change (gene MT1430 (Rv1386 PE)): 0.4838
WT DMSO/WT HC101A Fold change (gene MT1431 (Rv1387 PPE)): 0.3915
